Source: patent US4137310A, “Method for the control of cattle grubs employing a phenylene bis[imino(thio]carbonyl)diphosphor(thio)-amidic acid ester” (dated 1979)

Legend:
Cuterebra sp. larvae [1] = test: Efficacy for the control of Cuterebra sp. in infested mice, oral treatment; conditions: female mice, treated 48 hours after infestation, examined 4 days posttreatment, dosage that kills 50% of the larvae, log-probit
Cuterebra sp. larvae [2] = test: Efficacy for the control of Cuterebra sp. in infested mice, dermal (dip) treatment; conditions: dermal dip in emulsion, male mice, 48 hours after infestation, examined 4 days posttreatment; concentration that kills 50% of the larvae, log-probit

SMILES: CCOP(=O)(NC(=S)Nc1ccc(NC(=S)NP(=O)(OCC)OCC)c(Cl)c1)OCC
- Oral (mice) Dosage LD50 (Cuterebra sp. larvae [1]): 58.01 mg/kg
- Dermal (mice) Dosage LC50 (Cuterebra sp. larvae [2]): 0.18%

SMILES: CCOP(=O)(NC(=S)Nc1ccc(Cl)cc1NC(=S)NP(=O)(OCC)OCC)OCC
- Oral (mice) Dosage LD50 (Cuterebra sp. larvae [1]): 4.86 mg/kg
- Dermal (mice) Dosage LC50 (Cuterebra sp. larvae [2]): 0.031%

SMILES: CCOP(=O)(NC(=S)Nc1ccccc1NC(=S)NP(=O)(OCC)OCC)OCC
- Oral (mice) Dosage LD50 (Cuterebra sp. larvae [1]): 14.1 mg/kg
- Dermal (mice) Dosage LC50 (Cuterebra sp. larvae [2]): 0.06%
